Measurements: ChEMBL document CHEMBL4477216, “Discovery and Optimization of Small Molecule Splicing Modifiers of Survival Motor Neuron 2 as a Treatment for Spinal Muscular Atrophy” (J Med Chem, 2016)

Species on record: Homo sapiens
Assay: Inhibition of mRNA splicing of SMN2 exon 7 in GM03813 fibroblasts derived from SMA patient assessed as compound concentration required to increase SMN protein level by 1.5 times after 24 hrs by HTRF assay

**Q.** With `Cc1cn2cc(-c3cc4ccc(N5CCN(C)CC5)cc4c(=O)o3)nc2c(C)n1` as the compound, how does the EC1.5 read?
**A.** 120 nM
